Measured values: paper PMC10352329

Columns and labels:
[1] = molecular target: H2B (1–27) unmodified peptide (Homo sapiens); experiment: ITC; conditions: domain or fragment
[2] = molecular target: H4 (1–20) unmodified peptide (Homo sapiens); experiment: ITC; conditions: domain or fragment

pKd [1]: < 3.30 | pKd [2]: < 3.30
Substance: N-terminal bromodomain of human BRD4 (residues 44–168) (from UniProt O60885 44-168)

pKd: −log10 of the molar value.
